# AlphaSeq binding of Ab-91 heavy chain variants to a spike HR2 peptide

Target peptide (SARS-CoV-2 spike, HR2 region): PDVDLGDISGINAS

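AAYL51 was designed without a model: most single CDR substitutions and a random sample of double and triple ones. In AlphaSeq, yeast of one mating type display the scFv and yeast of the other type display the target. Mating (16 h, 30 °C) was followed by selection of diploids and sequencing of their barcodes. Scores were corrected for input abundance and mapped to Kd with protein pairs of known affinity run in the same pool. Mating was done three times.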

Each scFv is VL, a (GGGGS)3 linker, VH, as in the parent Ab-91, and differs from it in the CDRs of the heavy chain only.
VL: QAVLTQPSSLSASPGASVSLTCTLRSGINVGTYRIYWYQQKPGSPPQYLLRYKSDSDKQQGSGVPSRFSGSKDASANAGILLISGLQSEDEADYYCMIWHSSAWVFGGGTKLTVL
VH: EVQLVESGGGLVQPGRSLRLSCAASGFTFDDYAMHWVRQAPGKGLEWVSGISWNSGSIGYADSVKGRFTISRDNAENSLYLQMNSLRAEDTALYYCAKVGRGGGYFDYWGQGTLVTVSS

Each variant's VH is given in full. The read-out is the apparent dissociation constant on a log10 scale (nM): the lower, the stronger. "nd" marks a missing value. The strain was present, yet no cells mated with the target were sequenced in that replicate, which points to weak or no binding.

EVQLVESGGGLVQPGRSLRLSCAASGFTFDDYAMHWVRQAPGKGLEWVSGISLNSGSMGYGDSVKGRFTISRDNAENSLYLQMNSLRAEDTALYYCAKVGRGGGYFDYWGQGTLVTVSS: nd, 4.65, 5.22 (controls 5 of 9).
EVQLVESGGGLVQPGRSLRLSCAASGFTFDDYAMHWVRQAPGKGLEWVSGISWNSGSIGYADSVKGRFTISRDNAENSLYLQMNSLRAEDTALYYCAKWGRGGGCMDYWGQGTLVTVSS: nd, nd, nd (controls 1 of 9).
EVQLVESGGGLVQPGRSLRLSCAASQFTWDDYAMHWVRQAPGKGLEWVSGISWNYGSIGYADSVKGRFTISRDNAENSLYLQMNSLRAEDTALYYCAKVGRGGGYFDYWGQGTLVTVSS: nd, 3.82, nd (controls 3 of 9).
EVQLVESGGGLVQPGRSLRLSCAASTDTFDDYAMHWVRQAPGKGLEWVSGISWNSGSIGSADSVKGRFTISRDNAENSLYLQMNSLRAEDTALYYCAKVGRGGGYFDYWGQGTLVTVSS: 3.37, nd, nd (controls 0 of 9).
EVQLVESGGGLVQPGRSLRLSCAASGFTFDDYAMHWVRQAPGKGLEWVSGISWNSGSIGYADSVKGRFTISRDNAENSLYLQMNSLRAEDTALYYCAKVAEGGGYFSYWGQGTLVTVSS: 5.81, nd, 4.79 (controls 2 of 9).
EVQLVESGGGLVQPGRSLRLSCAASGFTFDDYFMEWVRQAPGKGLEWVSGISWNSVSIGYADSVKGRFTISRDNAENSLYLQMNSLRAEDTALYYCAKVGRGGGYFDYWGQGTLVTVSS: nd, nd, nd (controls 0 of 9).
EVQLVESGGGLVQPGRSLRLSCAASGFTFDDYAMHWVRQAPGKGLEWVSGISWWSGSIQYADSVKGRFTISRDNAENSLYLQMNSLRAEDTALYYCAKVGRGGGYRDYWGQGTLVTVSS: nd, nd, nd (controls 0 of 9).
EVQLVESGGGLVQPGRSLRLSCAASGFTFDDYTMHWVRQAPGKGLEWVSGIAWNSGSIGYADSVKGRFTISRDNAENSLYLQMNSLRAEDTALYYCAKVGRGGGYFDEWGQGTLVTVSS: nd, 3.08, nd (controls 0 of 9).
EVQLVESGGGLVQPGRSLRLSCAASGFTFDDYAMHWVRQAPGKGLEWVSGISWNSGSQGYADSGKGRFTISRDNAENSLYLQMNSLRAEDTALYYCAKVGRGGGYFHYWGQGTLVTVSS: 2.78, nd, nd (controls 0 of 9).
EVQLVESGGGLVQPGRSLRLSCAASGFTFDDEAMHWVRQAPGKGLEWVSGISWKSGSIGYADSVKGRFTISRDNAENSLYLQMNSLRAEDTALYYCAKVGRGGGYFDYWGQGTLVTVSS: 2.63, 2.39, 2.46 (controls 9 of 9).
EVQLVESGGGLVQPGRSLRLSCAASGFTGDDYSMHWVRQAPGKGLEWVSGISWNSGSIGYADSVKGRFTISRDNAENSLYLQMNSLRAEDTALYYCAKVGRGGGYFCYWGQGTLVTVSS: 4.06, 4.41, nd (controls 6 of 9).
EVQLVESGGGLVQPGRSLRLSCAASGFTFDDYAMCWVRQAPGKGLEWVSGISWNSGEIGYADSVKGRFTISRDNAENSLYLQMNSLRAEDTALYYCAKVGRGGGYIDYWGQGTLVTVSS: nd, 4.38, nd (controls 3 of 9).
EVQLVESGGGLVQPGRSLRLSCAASGFTFDDYAMHWVRQAPGKGLEWVSGISWNSGSIGYAGSVCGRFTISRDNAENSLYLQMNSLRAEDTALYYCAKVGRGGGYFGYWGQGTLVTVSS: 2.80, 2.40, 2.35 (controls 2 of 9).
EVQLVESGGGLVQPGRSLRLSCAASGFTHDDYAMHWVRQAPGKGLEWVSGISWNSGSIGYADSVKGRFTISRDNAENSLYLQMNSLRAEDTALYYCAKVGRGGGAFDYWGQGTLVTVSS: 4.61, nd, nd (controls 5 of 9).
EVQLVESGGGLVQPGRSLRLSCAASTFTFDDYAMHWVRQAPGKGLEWVSGISWNSGSIGYADSVKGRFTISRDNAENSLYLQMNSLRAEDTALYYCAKVGYTGGYFDYWGQGTLVTVSS: 3.75, nd, 3.71 (controls 1 of 9).
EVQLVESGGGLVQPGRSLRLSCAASCFTFDDYAMHWVRQAPGKGLEWVSGISWNSGSIGYLDSVKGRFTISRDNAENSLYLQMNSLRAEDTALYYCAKVGRGGGYFDYWGQGTLVTVSS: 4.22, 5.94, nd (controls 5 of 9).

Empty control strains, which show no peptide, gave a signal in 21% of pairings with library AAYL51; the median was 4.54 and 95% of these signals were weaker than 3.26. No background was subtracted. The control count says in how many pairings with the empty strains this scFv gave a signal. For reference, the parent read 1.86 as the reference entry and 0.88 as a member of this library.

The measurements come from Engelhart et al. 2022 (doi:10.1038/s41597-022-01779-4) through the FLAb antibody collection.